Compounds with a hit are over-represented: about 16% of the library has one in this group of screens.
DT40 TDP1 CPT – DT40-hTDP1 cell growth loss with CPT; chicken DT40 Tdp1-/-;hTDP1 cells + 20 nM CPT, ATP luminescence, 48 h; Potency, µM (series often up to 46.2 µM), inactives show top-dose activity change, negative = growth inhibition, usual class: inhibitors; hit rate 12% among 420,000; AID 686979; note: potency is the fitted concentration of half-maximal effect; % is set by controls: 0 for no effect and ±100 for the full control effect; nearly all actives have a fitted effect of over 55% in size
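Chicken DT40 Tdp1-/- cells complemented with human TDP1, 400 cells/well, exposed to compounds plus 20 nM camptothecin for at least 48 h at 37 C; viability read as ATP content by CellTiter-Glo luminescence.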
uPA surface inh – cell surface uPA generation inhibition | cell surface uPA generation assay, qHTS | hit rate 0.31% among 330,000 | Potency, µM (top dose mostly 38.3 µM), without a hit: top-dose activity change, negative = inhibition, usual class: inhibitors; active = well fitted inhibition curve with a large enough effect; inconclusive = small, poorly fitted or top-dose-only effect; inactive = no such curve, though single readings can be large or run the other way; tested in mouse RAW 264.7 cells; note: potency is the fitted concentration of half-maximal effect; % is set by controls: 0 for no effect and ±100 for the full control effect; nearly all actives have a fitted effect of over 55% in size
miR-21 reporter – raises the signal of a miR-21 reporter; HeLa miR-21 FLuc reporter, luciferase, 48 h; Potency, µM (top dose mostly 38.3 µM), for inactives: at the highest dose reporter change, positive = more light; AID 2288; 340,000 tested, under 10 active; active = well fitted rising curve with a large enough effect; inconclusive = small, poorly fitted or top-dose-only effect; inactive = no such curve, though single readings can be large or run the other way;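 note: % of control where 0% means no effect; miR-21 action dims this reporter so a rising signal means less miR-21 action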
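Compounds were titrated across several concentrations (up to approximately 40 uM) and incubated 48 hours with HeLa miR-21-FLuc reporter cells (miR-21 target sequence downstream of FLuc, endogenous miR-21). Readout was firefly luciferase luminescence after lytic detection reagent.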
DT40 TDP1 no CPT – qHTS for Inhibitors of human tyrosyl-DNA phosphodiesterase 1 (TDP1): qHTS in cells in absence of CPT | DT40 Tdp1-/- hTDP1 cells, no CPT, ATP luminescence, 48 h | hit rate 15% among 420,000 | Potency, µM (titrated, usually from 46.2 µM), for inactives: top-dose activity change, negative = growth inhibition, hits mostly inhibitors; note: potency is the fitted concentration of half-maximal effect; % is set by controls: 0 for no effect and ±100 for the full control effect; nearly all actives have a fitted effect of over 55% in size
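Stably hTDP1-transfected Tdp1-null chicken DT40 cells were treated with library compounds minus camptothecin and grown for at least 48 hr at 37 °C, after which cellular ATP was quantified by luminescence.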
TDP1 inh – blocks human tyrosyl-DNA phosphodiesterase 1. Q9NUW8. recombinant TDP1, AlphaScreen DNA substrate cleavage. Potency, µM (highest dose often 130 µM), inactives show at the top dose activity change, negative = inhibition, hits mostly inhibitors. hit rate 0.28% among 350,000; note: potency is the fitted concentration of half-maximal effect; % is set by controls: 0 for no effect and ±100 for the full control effect; nearly all actives have a fitted effect of over 40% in size
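Recombinant human Tdp1 (E. coli-expressed, 1 nM final) preincubated with compounds 15 min at room temperature, then 5'-biotin/3'-phosphotyrosine-FITC DNA substrate (15 nM final) added for 5 min. AlphaScreen beads (10 ug/ml final) added 10 min; cleavage lowers signal.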
* marks the source's active call; other numbers are inactive results. Unless noted, calls come from the whole dose curve; as a rule, active = well fitted curve in the direction sought with a large enough effect; inconclusive = small, poorly fitted or top-dose-only effect, or another doubt; inactive = no such curve, though single readings can be large; an effect the other way counts as inactive or inconclusive.

Results for COc1ccc(CCNC(=O)c2cc(=O)c3cc(C)ccc3o2)cc1 ?
DT40 TDP1 CPT: 23µM*; uPA surface inh: 1%; miR-21 reporter: -3%; DT40 TDP1 no CPT: 13µM*; TDP1 inh: 7%

How did Cc1ccc(C)n1-c1ccc(C(=O)NCc2ccncc2)cc1 do in these assays?
DT40 TDP1 CPT: inconclusive; uPA surface inh: -8%; miR-21 reporter: 2%; DT40 TDP1 no CPT: inconclusive; TDP1 inh: 5%

Results for Cc1ccc(C)n1-c1ccc(C(=O)NN)cc1 ?
DT40 TDP1 CPT: 7.3µM*; uPA surface inh: 6%; miR-21 reporter: -13%; DT40 TDP1 no CPT: 21µM*; TDP1 inh: 4%

Results for CC1(CNC(=O)C(=O)NCC2(C)CO2)CO1 (configuration not stated) ?
DT40 TDP1 CPT: 0.82µM*; uPA surface inh: -17%; DT40 TDP1 no CPT: 1.6µM*

Results for Cc1ccc2nc(-c3cccnc3)c(NC3CCCCC3)n2c1 ?
DT40 TDP1 CPT: inconclusive; uPA surface inh: -4%; miR-21 reporter: -6%; DT40 TDP1 no CPT: inconclusive; TDP1 inh: -2%

Results for CCC(C)Sc1ccc(-c2nc3ccc(C)cn3c2NC2CCCCC2)cc1 (configuration not stated) ?
DT40 TDP1 CPT: 7.3µM*; uPA surface inh: -36%; DT40 TDP1 no CPT: 8.2µM*

What do the screens show for `Cc1ccc2nc(-c3cccc(SC4CCCCC4)c3)c(NC3CCCCC3)n2c1`?
DT40 TDP1 CPT: 21µM*; uPA surface inh: 14%; DT40 TDP1 no CPT: 16µM*; TDP1 inh: 3%

What do the screens show for `Cc1ccn2c(NCc3ccccc3)c(-c3cccc(SC4CCCCC4)c3)nc2c1`?
DT40 TDP1 CPT: 23µM*; uPA surface inh: -9%; DT40 TDP1 no CPT: inconclusive; TDP1 inh: -5%

What do the screens show for `Cc1ccc2nc(-c3cccc(SC4CCCCC4)c3)c(NCc3ccccc3)n2c1`?
DT40 TDP1 CPT: 26µM*; uPA surface inh: inconclusive; DT40 TDP1 no CPT: 18µM*; TDP1 inh: 1%

How did c1ccc(CNc2c(-c3cccc(SC4CCCCC4)c3)nc3ccccn23)cc1 do in these assays?
DT40 TDP1 CPT: inconclusive; uPA surface inh: inconclusive; DT40 TDP1 no CPT: inconclusive; TDP1 inh: 0%

Results for Cc1ccccc1C(=O)NNC(=O)c1ccoc1C ?
DT40 TDP1 CPT: -12%; uPA surface inh: -1%; miR-21 reporter: -11%; DT40 TDP1 no CPT: -5%; TDP1 inh: 4%

How did CC(=O)N1CCN(C(=O)COC(=O)COc2ccc(C#N)cc2)CC1 do in these assays?
DT40 TDP1 CPT: 1%; uPA surface inh: 3%; DT40 TDP1 no CPT: -1%; TDP1 inh: 1%

Results for O=C(CCCCC(=O)Nc1ccc(F)cc1F)Nc1ccc(F)cc1F ?
DT40 TDP1 CPT: -4%; uPA surface inh: 3%; DT40 TDP1 no CPT: -6%

How did COc1ccccc1NS(=O)(=O)c1ccc(Cl)c(NC(=O)C(C)N2C(=O)c3ccccc3C2=O)c1 (configuration not stated) do in these assays?
DT40 TDP1 CPT: 5%; uPA surface inh: -1%; miR-21 reporter: 1%; DT40 TDP1 no CPT: -13%; TDP1 inh: -1%

What do the screens show for `COc1ccc(/C=C/C(=O)OCC(=O)N2CCCCCC2)c(OC)c1`?
DT40 TDP1 CPT: inconclusive; uPA surface inh: -10%; DT40 TDP1 no CPT: inconclusive; TDP1 inh: 0%

Results for COc1ccc(-c2ccc(-c3nc4ccc(C)cn4c3NC3CCCCC3)cc2OC)cc1 ?
DT40 TDP1 CPT: 10µM*; uPA surface inh: inconclusive; DT40 TDP1 no CPT: 13µM*; TDP1 inh: 1%

Results for Clc1ccc2nc(-c3cccc(SC4CCCCC4)c3)c(NCc3ccccc3)n2c1 ?
DT40 TDP1 CPT: 16µM*; uPA surface inh: -4%; DT40 TDP1 no CPT: inconclusive; TDP1 inh: 0%

Results for CCC(C)Sc1cccc(-c2nc3cc(C)ccn3c2NCc2ccccc2)c1 (configuration not stated) ?
DT40 TDP1 CPT: 23µM*; uPA surface inh: -19%; DT40 TDP1 no CPT: inconclusive; TDP1 inh: -2%

Pulled by compound from the list above (two):
What do the screens show for `COc1ccc(/C=C/C(=O)OCC(=O)N2CCCCCC2)c(OC)c1`?
DT40 TDP1 CPT: inconclusive; uPA surface inh: -10%; DT40 TDP1 no CPT: inconclusive; TDP1 inh: 0%

How did Cc1ccc(C)n1-c1ccc(C(=O)NCc2ccncc2)cc1 do in these assays?
DT40 TDP1 CPT: inconclusive; uPA surface inh: -8%; miR-21 reporter: 2%; DT40 TDP1 no CPT: inconclusive; TDP1 inh: 5%

Screens as filed in PubChem BioAssay.
